From PubChem BioAssay
A549 viability: A549 cytotoxicity, counter-screen for Nrf2 inhibitors; AID 504648; Potency, µM (top dose mostly 46 µM), without a hit: top-dose activity change, negative = cytotoxicity, most hits filed as inhibitors; 390,000 tested, 0.16% active; A549 ARE-Fluc cells, CellTiter-Fluor viability, 18-24 h; also: potency is read from the fitted curve at half-maximal effect; % is scaled to controls: 0 for no effect and ±100 for the full control effect
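A549 ARE-Fluc cells in 5% FBS OPTI-MEM, 5000 cells/well, rested 2 h then exposed to compounds in concentration-response for 18-24 h at 37 °C. Viability by CellTiter-Fluor fluorescence (Ex 405/Em 525) after 30 min; luciferase luminescence (BugLite, 15 min, RT) read afterwards.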
Nrf2 inh: blocks Nrf2 signaling | A549 ARE-Fluc reporter, luciferase luminescence, 18-24 h | Potency, µM (series often up to 46 µM), for the others: at the top dose activity change, negative = inhibition, actives largely listed as inhibitors | 360,000 tested, 2.1% active | AID 504444; also: potency is read from the fitted curve at half-maximal effect; % is scaled to controls: 0 for no effect and ±100 for the full control effect; nearly all actives have a fitted effect of over 60% in size
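Two sequential reads on A549 ARE_Fluc cells exposed to compound for 18-24 h: a CellTiter-Fluor fluorescence read for viability, then a luciferase luminescence read for Nrf2/ARE activity.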
PI4K2A inh: PI4K2A (human) kinase inhibition; 420,000 tested, 0.13% active; purified PI4K2A, ADP-Glo luminescence, 1 h; hits give low values; Q9BTU6; activity change, negative = inhibition, % at 76.9 µM; in the data active = activity change below about -50%; inconclusive = mostly about -30% to -49%;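 also: -100% = wells without enzyme as full effect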
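ADP-Glo luminescence measured ADP generated by PI4K2A enzyme (4 ug/mL before mixing) with 1.2 mM PI substrate (pre-mix) and 300 microM ATP (pre-mix). Tris pH7.5 buffer with MgCl2, Triton X-100; 1 h reaction at ambient temperature.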
GALK inhibitor: galactokinase (human) inhibition; AID 1868; Purified GALK, Kinase-Glo residual ATP luminescence; Potency, µM (top dose mostly 57.5 µM), for inactives: at the highest dose activity change, negative = inhibition, hits mostly inhibitors; 270,000 tested, 0.007% active; also: potency is read from the fitted curve at half-maximal effect; % is scaled to controls: 0 for no effect and ±100 for the full control effect
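Compounds were pin-transferred into ATP buffer (35 uM final), then GALK plus galactose (5 nM, 100 uM final) was added. After 1 h at room temperature, Kinase-Glo Plus was added and luminescence read after 10 min.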
Nrf2 ARE act: activates Nrf2 signaling. 410,000 tested, 0.31% active. Potency, µM (titrated, usually from 46.1 µM), inactives show at the highest dose activation, hits mostly activators. AREc32 ARE-luciferase reporter (MCF7-derived line), luminescence, 24 h. AID 624171; also: potency is read from the fitted curve at half-maximal effect; % of control where 0% means no effect; nearly all actives have a fitted effect of over 65% in size
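AREc32 cells carrying an ARE-driven firefly luciferase, 1000 cells/well in OPTI-MEM with 5% FBS, dosed after overnight attachment and incubated 24 hr at 37 deg C. Steady-Glo luminescence read after 30 min at RT.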
miR-21 reporter: miR-21 reporter, rising signal; HeLa miR-21 FLuc reporter, luciferase, 48 h; Potency, µM (highest dose often 38.3 µM), for the others: top-dose reporter change, positive = more light; 340,000 tested, under 10 active; AID 2288; active = well fitted rising curve with a large enough effect; inconclusive = small, poorly fitted or top-dose-only effect; inactive = no such curve, though single readings can be large or run the other way;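 further: % of control where 0% means no effect; miR-21 action dims this reporter so a rising signal means less miR-21 action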
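Luminescence from a firefly luciferase reporter carrying a miR-21 binding site downstream, stably expressed under a CMV promoter in HeLa cells that make miR-21 endogenously, reports miRNA modulation after 48 h compound exposure up to approximately 40uM final.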
An asterisk follows results filed as active. Most compounds without a hit are left out; they make up all but 2.2% or so of the library. Unless noted, calls follow the shape of the dose curve; as a rule, active = well fitted curve in the direction sought with a large enough effect; inconclusive = small, poorly fitted or top-dose-only effect, or another doubt; inactive = no such curve, though single readings can be large; an effect the other way counts as inactive or inconclusive.

How did Cc1csc2c(N3CCN(C(=O)c4ccc(C(C)(C)C)cc4)CC3)ncnc12 do in these assays?
A549 viability: -2%; Nrf2 inh: -23%; PI4K2A inh: -5; GALK inhibitor: -3%; Nrf2 ARE act: 7%; miR-21 reporter: -3%

Results for Cc1csc2c(N3CCN(C(=S)Nc4ccc(C(F)(F)F)cc4)CC3)ncnc12 ?
A549 viability: 5%; Nrf2 inh: inconclusive; PI4K2A inh: 3; Nrf2 ARE act: 9%; miR-21 reporter: -3%

Results for Cc1csc2c(N3CCN(C(=O)Nc4ccc(Cl)c(Cl)c4)CC3)ncnc12 ?
A549 viability: -16%; Nrf2 inh: 21µM*; PI4K2A inh: 9; Nrf2 ARE act: 3%; miR-21 reporter: -5%

What do the screens show for `Cc1csc2c(N3CCN(C(=O)NC(C)(C)C)CC3)ncnc12`?
A549 viability: -16%; Nrf2 inh: 18µM*; PI4K2A inh: 5; Nrf2 ARE act: -1%; miR-21 reporter: 10%

How did CC(=O)C1(C(=O)NC2CCCC2)CC(c2ccccn2)=NO1 (stereo not drawn) do in these assays?
PI4K2A inh: 6

Results for Cc1nn(C)c(C)c1CNC(=O)c1nn2c(c1Cl)NC(c1cccs1)CC2C(F)(F)F (stereo not drawn) ?
A549 viability: -12%; Nrf2 inh: 16µM*; PI4K2A inh: -1; GALK inhibitor: 1%; Nrf2 ARE act: 3%; miR-21 reporter: 16%

How did Cc1nn(C)cc1CNC(=O)c1cc2n(n1)C(C(F)(F)F)CC(c1cccs1)N2 (stereo not drawn) do in these assays?
A549 viability: -7%; Nrf2 inh: inconclusive; PI4K2A inh: 0; GALK inhibitor: 0%; Nrf2 ARE act: 1%; miR-21 reporter: 8%

How did CC[C@H]1OC(=O)[C@H](C)[C@@H](O[C@H]2C[C@@](C)(OC)[C@@H](O)[C@H](C)O2)C(C)[C@@H](O[C@@H]2O[C@H](C)C[C@H](N(C)C)[C@H]2O)[C@](C)(O)C[C@@H](C)CN(C)[C@H](C)[C@@H](O)[C@]1(C)O (stereo partly drawn) do in these assays?
PI4K2A inh: 0

Results for Cc1ccc2nc3sc(C(=O)Nc4ccc(N5CCOCC5)cc4)c(N)c3cc2c1 ?
GALK inhibitor: 0%; miR-21 reporter: -14%

Results for Cc1cccc2cc3c(N)c(C(=O)Nc4ccc(N5CCOCC5)cc4)sc3nc12 ?
A549 viability: -18%; Nrf2 inh: 23µM*; PI4K2A inh: -1; GALK inhibitor: -4%; Nrf2 ARE act: 0%; miR-21 reporter: -7%

Results for O=C(NC(=S)Nc1cccc2ncccc12)c1ccco1 ?
A549 viability: 1%; Nrf2 inh: 13%; PI4K2A inh: 2; GALK inhibitor: 0%; Nrf2 ARE act: 8%; miR-21 reporter: -2%

Results for COCCCNC(=S)Nc1cccc2ncccc12 ?
A549 viability: -2%; Nrf2 inh: 13µM*; PI4K2A inh: inconclusive; GALK inhibitor: 0%; Nrf2 ARE act: -3%; miR-21 reporter: 1%

What do the screens show for `Cc1cc(C(=O)N/N=C/c2ccc([N+](=O)[O-])o2)c(C)o1`?
A549 viability: -7%; Nrf2 inh: 0%; PI4K2A inh: -5; GALK inhibitor: -1%; Nrf2 ARE act: 8%; miR-21 reporter: inconclusive

How did O=C(N/N=C/c1ccco1)c1cc(-c2ccccc2)nc2ccccc12 do in these assays?
A549 viability: 0%; Nrf2 inh: 7%; PI4K2A inh: -4; GALK inhibitor: 6%; Nrf2 ARE act: 16%; miR-21 reporter: 3%

What do the screens show for `O=C(N/N=C/c1ccc([N+](=O)[O-])o1)c1cc(-c2cccc(Br)c2)nc2ccccc12`?
A549 viability: inconclusive; Nrf2 inh: 13µM*; PI4K2A inh: 1; Nrf2 ARE act: inconclusive; miR-21 reporter: -8%

3 compounds from above, ordered by heavy-atom count, ascending.
How did Cc1nn(C)cc1CNC(=O)c1cc2n(n1)C(C(F)(F)F)CC(c1cccs1)N2 (stereo not drawn) do in these assays?
A549 viability: -7%; Nrf2 inh: inconclusive; PI4K2A inh: 0; GALK inhibitor: 0%; Nrf2 ARE act: 1%; miR-21 reporter: 8%

Results for Cc1ccc2nc3sc(C(=O)Nc4ccc(N5CCOCC5)cc4)c(N)c3cc2c1 ?
GALK inhibitor: 0%; miR-21 reporter: -14%

Results for Cc1nn(C)c(C)c1CNC(=O)c1nn2c(c1Cl)NC(c1cccs1)CC2C(F)(F)F (stereo not drawn) ?
A549 viability: -12%; Nrf2 inh: 16µM*; PI4K2A inh: -1; GALK inhibitor: 1%; Nrf2 ARE act: 3%; miR-21 reporter: 16%
